Experimental data as given in patent US20070282095.

What was measured:
[1] = biological target: blood coagulation factor 8 (UniProt P00451)
[2] = biological target: blood coagulation factor 13 (Fibrogammin P) (UniProt P00488)

Substance	APTT of standard plasma, 50 µg/ml derivative [1]	also measured
77E203A205G thrombin (lysine 77 to glutamic acid, glycine 203 to alanine, serine 205 to glycine in B chain)	the APTT of the 77E203A205G thrombin was 74 seconds, which showed that APTT was prolonged by 1.68 folds	–
203A205A thrombin (glycine 203 to alanine, serine 205 to alanine in B chain)	–	APTT of standard plasma, 100 µg/ml derivative [1]: the APTT of the control was 55 seconds while the APTT of the 203A205A thrombin was 59 seconds
203A205G thrombin (glycine at position 203 in B chain substituted by alanine, serine at position 205 substituted by glycine)	in the 203A205G thrombin it took 48 seconds, which was prolonged by 1.09 folds	–
205A43A thrombin (serine 205 to alanine, histidine 43 to alanine in B chain)	the APTT of the 205A43A thrombin was 78 seconds, which prolonged the APTT to 1.7 folds	–
205A thrombin (serine at position 205 in B chain substituted by alanine)	the APTT of the control was 41 seconds while the APTT of the 205A thrombin was 62 seconds	–
205G thrombin (serine at position 205 in B chain substituted by glycine)	–	cleavage of FXIII A chain, SDS-PAGE (method B), 37°C 3 hours [2]: A band of FXIII which had been cleaved by about 50% was detected
